# Assay results: patent US20230365620A1, “CYCLIN-DEPENDENT KINASE INHIBITORS AND METHODS OF USE” (DANA-FARBER CANCER INSTITUTE, INC., priority 2018, published 2023)
# Amino acid sequences for entries named in this document (tags omitted).
# UniProt P49336, whole entry: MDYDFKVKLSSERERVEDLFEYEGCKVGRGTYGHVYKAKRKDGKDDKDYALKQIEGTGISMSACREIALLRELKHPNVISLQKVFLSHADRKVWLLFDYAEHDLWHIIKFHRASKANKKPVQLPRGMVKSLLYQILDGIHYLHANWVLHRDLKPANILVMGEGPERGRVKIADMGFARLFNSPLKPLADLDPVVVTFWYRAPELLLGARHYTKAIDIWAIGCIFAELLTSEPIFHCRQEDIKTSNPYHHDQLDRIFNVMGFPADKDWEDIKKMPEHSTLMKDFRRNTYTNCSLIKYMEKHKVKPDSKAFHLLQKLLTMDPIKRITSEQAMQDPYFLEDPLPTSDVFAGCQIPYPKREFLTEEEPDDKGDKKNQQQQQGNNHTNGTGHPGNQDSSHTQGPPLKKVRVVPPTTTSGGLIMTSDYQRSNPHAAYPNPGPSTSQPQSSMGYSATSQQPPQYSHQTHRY
# UniProt P24863, whole entry partner: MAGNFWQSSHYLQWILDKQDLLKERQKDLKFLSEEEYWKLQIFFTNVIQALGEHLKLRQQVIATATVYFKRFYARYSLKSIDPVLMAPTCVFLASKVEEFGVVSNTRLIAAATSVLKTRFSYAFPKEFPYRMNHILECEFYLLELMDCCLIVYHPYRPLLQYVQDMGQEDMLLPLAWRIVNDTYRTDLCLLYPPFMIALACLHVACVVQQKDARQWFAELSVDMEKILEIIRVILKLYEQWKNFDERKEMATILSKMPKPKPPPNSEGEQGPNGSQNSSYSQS
# Target: CDK8 (Homo sapiens, UniProt P49336)
# Assay: LANTHASCREEN Eu Kinase Binding Assay (competitive kinase binding, Tracer displacement)
# Settings: read-out: Enzyme IC50; displacing the Tracer from binding to the target kinase
smiles,measurement,value
CC(=O)N(C)[C@H]1CC[C@@]2(C)C(CC[C@@H]3C2CC[C@]2(C)[C@@H](c4ccc5ccncc5c4)CC[C@@H]32)C1 (stereo partly shown),IC50,< 100 nM
